Measurements: BindingDB's records for patent US9273014 (Bristol-Myers Squibb Co., 2016)

Chains of the proteins cited; added tags and fusions are not shown.
UniProt P46531, whole entry: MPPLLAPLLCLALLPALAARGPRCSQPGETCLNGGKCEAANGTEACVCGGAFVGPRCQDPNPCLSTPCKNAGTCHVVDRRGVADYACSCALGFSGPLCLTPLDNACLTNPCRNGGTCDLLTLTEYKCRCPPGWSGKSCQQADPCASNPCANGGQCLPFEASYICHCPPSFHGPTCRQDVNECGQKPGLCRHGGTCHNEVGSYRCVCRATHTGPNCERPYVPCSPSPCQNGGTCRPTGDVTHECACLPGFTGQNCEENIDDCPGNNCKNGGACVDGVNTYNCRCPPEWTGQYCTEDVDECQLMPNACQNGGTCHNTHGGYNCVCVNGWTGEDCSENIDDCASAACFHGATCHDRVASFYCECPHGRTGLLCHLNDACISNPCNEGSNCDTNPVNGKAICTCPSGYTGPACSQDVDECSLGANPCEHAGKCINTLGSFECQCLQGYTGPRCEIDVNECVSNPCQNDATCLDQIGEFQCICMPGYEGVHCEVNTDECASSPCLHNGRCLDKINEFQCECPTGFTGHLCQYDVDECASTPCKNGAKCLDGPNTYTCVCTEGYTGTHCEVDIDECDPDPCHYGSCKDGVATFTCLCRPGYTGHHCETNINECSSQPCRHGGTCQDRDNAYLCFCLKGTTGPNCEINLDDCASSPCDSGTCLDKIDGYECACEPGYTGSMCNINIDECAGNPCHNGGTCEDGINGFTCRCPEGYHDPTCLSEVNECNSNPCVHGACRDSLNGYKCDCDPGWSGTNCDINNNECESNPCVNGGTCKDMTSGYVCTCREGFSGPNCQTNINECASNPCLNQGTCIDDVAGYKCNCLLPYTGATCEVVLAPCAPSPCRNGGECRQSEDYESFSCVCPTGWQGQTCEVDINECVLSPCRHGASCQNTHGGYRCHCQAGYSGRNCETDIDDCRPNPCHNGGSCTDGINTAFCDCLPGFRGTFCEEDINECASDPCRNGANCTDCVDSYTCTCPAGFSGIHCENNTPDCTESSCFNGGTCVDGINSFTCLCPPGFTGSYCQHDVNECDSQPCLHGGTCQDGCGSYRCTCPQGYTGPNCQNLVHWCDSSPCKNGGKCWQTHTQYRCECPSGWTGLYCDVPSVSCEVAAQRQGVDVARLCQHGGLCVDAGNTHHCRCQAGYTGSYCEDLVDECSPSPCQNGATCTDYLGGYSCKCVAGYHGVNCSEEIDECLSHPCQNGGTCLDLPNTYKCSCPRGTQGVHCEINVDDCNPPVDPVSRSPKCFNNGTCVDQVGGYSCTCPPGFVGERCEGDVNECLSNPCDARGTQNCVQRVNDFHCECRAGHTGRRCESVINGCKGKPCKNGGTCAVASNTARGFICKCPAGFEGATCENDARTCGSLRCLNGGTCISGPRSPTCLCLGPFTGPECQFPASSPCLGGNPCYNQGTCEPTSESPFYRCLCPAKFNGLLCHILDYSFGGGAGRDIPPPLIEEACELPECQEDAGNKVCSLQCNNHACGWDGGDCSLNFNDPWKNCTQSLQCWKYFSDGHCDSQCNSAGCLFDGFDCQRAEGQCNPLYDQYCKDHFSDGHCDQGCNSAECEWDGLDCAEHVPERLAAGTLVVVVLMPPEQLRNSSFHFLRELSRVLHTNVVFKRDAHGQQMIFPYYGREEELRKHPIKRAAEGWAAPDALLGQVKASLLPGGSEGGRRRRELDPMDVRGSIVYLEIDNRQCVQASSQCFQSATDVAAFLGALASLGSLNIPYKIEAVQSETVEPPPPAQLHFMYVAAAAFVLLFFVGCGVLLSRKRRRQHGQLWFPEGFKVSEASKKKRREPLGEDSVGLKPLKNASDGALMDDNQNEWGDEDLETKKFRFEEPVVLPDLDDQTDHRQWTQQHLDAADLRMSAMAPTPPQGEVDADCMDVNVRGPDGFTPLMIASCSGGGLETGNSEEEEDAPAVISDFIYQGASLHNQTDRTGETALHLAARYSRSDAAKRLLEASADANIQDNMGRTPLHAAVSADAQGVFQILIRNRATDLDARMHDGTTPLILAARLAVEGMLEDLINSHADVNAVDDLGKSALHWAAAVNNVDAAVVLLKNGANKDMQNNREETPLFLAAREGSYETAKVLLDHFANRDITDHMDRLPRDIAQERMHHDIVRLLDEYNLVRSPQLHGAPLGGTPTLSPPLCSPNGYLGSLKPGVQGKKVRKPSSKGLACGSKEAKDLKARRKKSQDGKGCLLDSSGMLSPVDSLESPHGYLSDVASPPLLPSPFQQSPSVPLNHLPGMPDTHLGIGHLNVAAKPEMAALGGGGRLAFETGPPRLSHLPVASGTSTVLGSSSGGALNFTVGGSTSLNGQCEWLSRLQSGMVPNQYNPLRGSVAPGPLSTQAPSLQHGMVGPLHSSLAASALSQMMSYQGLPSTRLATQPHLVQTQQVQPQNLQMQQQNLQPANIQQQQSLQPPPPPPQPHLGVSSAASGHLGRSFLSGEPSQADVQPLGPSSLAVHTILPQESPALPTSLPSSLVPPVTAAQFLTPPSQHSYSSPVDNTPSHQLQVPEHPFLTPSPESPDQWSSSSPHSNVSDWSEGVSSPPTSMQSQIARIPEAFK
UniProt Q9UM47, whole entry: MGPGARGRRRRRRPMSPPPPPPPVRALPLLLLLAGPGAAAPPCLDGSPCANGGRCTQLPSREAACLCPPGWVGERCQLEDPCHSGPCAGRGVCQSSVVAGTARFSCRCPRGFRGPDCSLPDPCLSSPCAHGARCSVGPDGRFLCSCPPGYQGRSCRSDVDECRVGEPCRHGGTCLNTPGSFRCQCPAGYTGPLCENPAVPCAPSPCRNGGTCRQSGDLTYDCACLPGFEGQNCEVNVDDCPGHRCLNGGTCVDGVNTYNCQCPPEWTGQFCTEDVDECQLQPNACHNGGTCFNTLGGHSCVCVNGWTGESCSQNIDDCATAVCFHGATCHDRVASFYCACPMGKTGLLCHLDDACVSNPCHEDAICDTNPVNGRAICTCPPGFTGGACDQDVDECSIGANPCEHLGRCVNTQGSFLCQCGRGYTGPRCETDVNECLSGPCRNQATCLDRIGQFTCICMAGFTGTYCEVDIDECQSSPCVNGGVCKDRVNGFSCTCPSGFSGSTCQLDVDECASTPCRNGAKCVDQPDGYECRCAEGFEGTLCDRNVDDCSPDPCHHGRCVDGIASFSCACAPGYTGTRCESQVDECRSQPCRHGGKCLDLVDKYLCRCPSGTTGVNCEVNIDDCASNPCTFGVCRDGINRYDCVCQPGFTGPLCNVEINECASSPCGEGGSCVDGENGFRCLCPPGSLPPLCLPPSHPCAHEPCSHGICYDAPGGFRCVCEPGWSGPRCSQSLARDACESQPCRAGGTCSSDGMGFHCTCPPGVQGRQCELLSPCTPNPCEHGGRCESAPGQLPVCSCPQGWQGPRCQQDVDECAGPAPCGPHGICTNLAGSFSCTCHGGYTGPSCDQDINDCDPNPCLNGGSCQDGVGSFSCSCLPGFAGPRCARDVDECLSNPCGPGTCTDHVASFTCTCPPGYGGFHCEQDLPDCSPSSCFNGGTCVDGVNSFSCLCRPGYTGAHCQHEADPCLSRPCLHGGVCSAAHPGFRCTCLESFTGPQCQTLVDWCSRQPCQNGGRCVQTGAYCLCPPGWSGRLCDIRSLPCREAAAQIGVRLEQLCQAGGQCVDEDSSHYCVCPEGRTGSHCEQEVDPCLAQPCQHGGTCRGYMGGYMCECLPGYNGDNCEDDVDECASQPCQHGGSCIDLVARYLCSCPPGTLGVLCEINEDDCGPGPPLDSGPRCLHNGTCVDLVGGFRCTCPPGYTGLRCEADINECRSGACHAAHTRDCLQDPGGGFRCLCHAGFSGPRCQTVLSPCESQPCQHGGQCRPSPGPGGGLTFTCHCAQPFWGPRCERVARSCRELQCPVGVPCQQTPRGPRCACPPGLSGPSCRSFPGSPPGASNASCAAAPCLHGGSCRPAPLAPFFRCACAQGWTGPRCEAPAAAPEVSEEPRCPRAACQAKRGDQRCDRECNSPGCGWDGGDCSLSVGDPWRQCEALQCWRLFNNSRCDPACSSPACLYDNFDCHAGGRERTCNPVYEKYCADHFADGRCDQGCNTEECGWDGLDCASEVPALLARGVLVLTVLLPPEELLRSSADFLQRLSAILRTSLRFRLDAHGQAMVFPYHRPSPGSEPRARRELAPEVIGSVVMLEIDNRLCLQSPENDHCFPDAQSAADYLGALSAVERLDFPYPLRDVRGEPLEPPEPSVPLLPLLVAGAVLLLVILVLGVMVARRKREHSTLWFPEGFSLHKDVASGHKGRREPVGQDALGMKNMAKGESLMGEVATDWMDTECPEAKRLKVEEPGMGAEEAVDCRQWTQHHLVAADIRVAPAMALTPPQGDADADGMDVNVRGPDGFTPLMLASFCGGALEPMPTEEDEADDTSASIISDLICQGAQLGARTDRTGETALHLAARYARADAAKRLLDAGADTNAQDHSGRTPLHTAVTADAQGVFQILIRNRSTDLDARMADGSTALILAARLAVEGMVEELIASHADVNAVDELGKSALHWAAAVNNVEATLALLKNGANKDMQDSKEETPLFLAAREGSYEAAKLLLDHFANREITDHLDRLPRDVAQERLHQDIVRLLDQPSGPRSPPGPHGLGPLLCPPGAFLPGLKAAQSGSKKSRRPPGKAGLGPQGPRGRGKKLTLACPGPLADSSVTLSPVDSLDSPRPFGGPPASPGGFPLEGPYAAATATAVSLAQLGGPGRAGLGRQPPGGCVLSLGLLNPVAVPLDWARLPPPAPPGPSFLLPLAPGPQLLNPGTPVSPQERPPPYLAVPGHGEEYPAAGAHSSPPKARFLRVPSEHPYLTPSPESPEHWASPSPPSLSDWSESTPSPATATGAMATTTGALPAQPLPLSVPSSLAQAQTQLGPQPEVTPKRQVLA

What was measured:
[1] = target: Neurogenic locus notch homolog protein 1 (Homo sapiens, UniProt P46531); experiment: Biological Assay
[2] = target: Neurogenic locus notch homolog protein 3 (Human, UniProt Q9UM47); experiment: Biological Assay

COc1cccc2c1NC(=O)[C@@H](NC(=O)[C@H](CCC(F)(F)F)[C@H](CCC(F)(F)F)C(N)=O)N=C2c1ccc(Cl)cn1 [US9273014, 34]
IC50 [1]: 4.8 nM

Cc1cccc(C2=N[C@H](NC(=O)[C@H](CCC(F)(F)F)[C@H](CCC(F)(F)F)C(N)=O)C(=O)Nc3c2cccc3C(F)(F)F)c1 [US9273014, 11]
IC50 [1]: 8.2 nM

CC(C)c1cccc2c1NC(=O)[C@@H](NC(=O)[C@H](CCC(F)(F)F)[C@H](CCC(F)(F)F)C(N)=O)N=C2c1ccccc1 [US9273014, 13]
IC50 [1]: 3.4 nM

NC(=O)[C@@H](CCC(F)(F)F)[C@@H](CCC(F)(F)F)C(=O)N[C@H]1N=C(c2ccc(CO)cc2)c2ccccc2NC1=O [US9273014, 30]
IC50 [1]: 4.8 nM | IC50 [2]: 7.9 nM

COc1cccc2c1NC(=O)[C@@H](NC(=O)[C@H](CCC(F)(F)F)[C@H](CCC(F)(F)F)C(N)=O)N=C2c1cccc(C)c1 [US9273014, 29]
IC50 [1]: 3.9 nM
